Results taken from US20090326001A1, “THIENOPYRIDINE DERIVATIVES AS MODULATORS OF METABOTROPIC GLUTAMATE RECEPTORS” (priority 2005, published 2009).

By UniProt entry, the sequences of proteins in these tests, tags left out. Residues count along the entry.
UniProt P31424, whole entry: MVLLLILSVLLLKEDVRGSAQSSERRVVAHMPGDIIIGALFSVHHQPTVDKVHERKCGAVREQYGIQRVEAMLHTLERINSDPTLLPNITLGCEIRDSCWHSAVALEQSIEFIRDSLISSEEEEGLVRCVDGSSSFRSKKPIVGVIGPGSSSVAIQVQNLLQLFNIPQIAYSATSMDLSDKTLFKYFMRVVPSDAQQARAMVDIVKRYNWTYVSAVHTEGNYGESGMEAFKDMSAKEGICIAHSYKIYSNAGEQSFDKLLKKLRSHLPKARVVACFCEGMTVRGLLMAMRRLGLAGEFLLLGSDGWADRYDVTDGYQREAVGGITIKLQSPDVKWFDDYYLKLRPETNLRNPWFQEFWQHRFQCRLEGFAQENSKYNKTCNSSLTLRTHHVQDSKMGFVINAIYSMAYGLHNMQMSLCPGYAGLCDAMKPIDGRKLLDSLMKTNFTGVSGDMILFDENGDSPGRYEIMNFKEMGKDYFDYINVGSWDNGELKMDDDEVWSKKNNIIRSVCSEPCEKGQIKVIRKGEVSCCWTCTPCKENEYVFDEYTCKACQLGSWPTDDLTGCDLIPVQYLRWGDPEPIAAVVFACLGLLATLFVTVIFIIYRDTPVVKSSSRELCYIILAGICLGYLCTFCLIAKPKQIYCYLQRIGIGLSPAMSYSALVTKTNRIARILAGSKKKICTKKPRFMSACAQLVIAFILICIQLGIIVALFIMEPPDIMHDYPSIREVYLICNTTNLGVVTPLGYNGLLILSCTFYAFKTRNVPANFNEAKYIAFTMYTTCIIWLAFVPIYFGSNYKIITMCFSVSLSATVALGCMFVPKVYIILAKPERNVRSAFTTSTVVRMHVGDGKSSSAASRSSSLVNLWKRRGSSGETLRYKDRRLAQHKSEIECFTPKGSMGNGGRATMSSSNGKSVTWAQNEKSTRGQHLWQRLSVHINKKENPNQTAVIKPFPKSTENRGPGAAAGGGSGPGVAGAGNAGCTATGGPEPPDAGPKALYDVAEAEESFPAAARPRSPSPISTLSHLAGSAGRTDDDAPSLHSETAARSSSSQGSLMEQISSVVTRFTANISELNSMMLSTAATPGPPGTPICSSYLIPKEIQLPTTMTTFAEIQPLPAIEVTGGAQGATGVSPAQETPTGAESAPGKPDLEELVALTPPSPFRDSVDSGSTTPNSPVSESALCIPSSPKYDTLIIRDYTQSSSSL
UniProt P23385, 19-1199 limits assumed: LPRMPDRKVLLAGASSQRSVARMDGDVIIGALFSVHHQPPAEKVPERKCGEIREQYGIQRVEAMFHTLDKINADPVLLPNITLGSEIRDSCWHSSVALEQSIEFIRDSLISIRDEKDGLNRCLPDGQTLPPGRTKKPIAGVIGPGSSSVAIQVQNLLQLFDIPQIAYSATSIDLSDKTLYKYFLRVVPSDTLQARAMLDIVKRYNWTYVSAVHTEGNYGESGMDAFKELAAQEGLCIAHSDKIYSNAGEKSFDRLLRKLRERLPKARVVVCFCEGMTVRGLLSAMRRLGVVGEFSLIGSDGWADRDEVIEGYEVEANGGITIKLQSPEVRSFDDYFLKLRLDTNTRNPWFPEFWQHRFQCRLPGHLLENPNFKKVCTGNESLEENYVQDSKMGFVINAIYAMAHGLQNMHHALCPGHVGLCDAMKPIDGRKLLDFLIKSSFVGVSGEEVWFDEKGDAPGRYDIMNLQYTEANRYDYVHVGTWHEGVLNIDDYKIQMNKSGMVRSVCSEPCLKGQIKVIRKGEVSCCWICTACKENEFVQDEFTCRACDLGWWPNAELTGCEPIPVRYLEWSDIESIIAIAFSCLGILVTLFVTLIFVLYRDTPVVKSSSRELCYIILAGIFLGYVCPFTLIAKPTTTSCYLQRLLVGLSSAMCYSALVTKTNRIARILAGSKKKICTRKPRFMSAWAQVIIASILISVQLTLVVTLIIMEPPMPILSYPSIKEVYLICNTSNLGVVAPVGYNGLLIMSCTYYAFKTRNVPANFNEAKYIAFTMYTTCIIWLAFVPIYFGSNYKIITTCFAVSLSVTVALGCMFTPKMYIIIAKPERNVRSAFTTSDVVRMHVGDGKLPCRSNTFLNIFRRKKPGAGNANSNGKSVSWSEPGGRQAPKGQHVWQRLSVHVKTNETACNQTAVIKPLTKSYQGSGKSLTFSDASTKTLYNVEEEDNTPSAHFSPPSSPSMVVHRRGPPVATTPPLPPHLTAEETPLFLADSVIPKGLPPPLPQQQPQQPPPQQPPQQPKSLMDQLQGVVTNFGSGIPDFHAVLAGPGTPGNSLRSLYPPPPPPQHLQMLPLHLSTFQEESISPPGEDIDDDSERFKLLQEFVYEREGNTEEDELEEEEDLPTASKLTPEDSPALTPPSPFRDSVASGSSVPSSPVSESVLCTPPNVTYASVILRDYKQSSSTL

What was measured:
mGluR5 = mGluR5 (UniProt P31424); assay: mGluR5 receptor binding test ([3H]-M-MPEP displacement); settings: read-out: mGlu5 Ki; radioligand [3H]-M-MPEP 2 nM; table does not say rat cerebro-cortical membrane or human mGluR5a A18 cells
rat mGluR1 = rat mGluR1 (Rattus norvegicus, UniProt P23385); assay: mGluR1 receptor binding test ([3H]R214127 displacement, rat cerebellar membrane); settings: read-out: mGlu1 Ki, radioligand [3H]R214127 3 nM
Method: MGluR1 receptor binding testes were performed according to modified method of Lavreysen et al. (Mol. Pharm., 2003, 63, 1082). Based on the high homology between the human and rat mGluR1 receptors, rat cerebellar membrane preparation was used to determine the binding characteristics of reference compounds and novel compounds to the rat mGluR1. As radioligand [3H]R214127 (3 nM) was used and the nonspecific binding was determined in the presence of 1 μM of R214127.
IC-50 values were determined from displacement curves by nonlinear regression analysis and were converted by equation method of Cheng and Prusoff (Biochem. Pharmacol., 1973, 22, 3099) to Ki values.

SMILES	pKi (mGluR5)	pKi (rat mGluR1)
O=C(Nc1ccc(F)cc1)c1sc2ncccc2c1-c1ccc(Cl)cc1	< 5.82	< 5.82
CN(C(=O)c1sc2ncccc2c1-c1ccc(Cl)cc1)c1ccc(F)cc1	< 5.82	5.82 to 6.30
O=C(CCc1ccc(F)cc1)c1sc2ncccc2c1-c1ccccc1	> 6.30	> 6.30
O=C(/C=C/c1cccc(F)c1)c1sc2ncccc2c1-c1ccc(F)cc1	< 5.82	> 6.30

pKi: −log10 of the molar value.
